Source: US20030171276A1, “Preventives and remedies for chronic hepatitis” (priority 1999, published 2003)

The chains behind the UniProt entries cited, without tags or fusion partners. Residues count along the entry.
UniProt P27958, 384-746: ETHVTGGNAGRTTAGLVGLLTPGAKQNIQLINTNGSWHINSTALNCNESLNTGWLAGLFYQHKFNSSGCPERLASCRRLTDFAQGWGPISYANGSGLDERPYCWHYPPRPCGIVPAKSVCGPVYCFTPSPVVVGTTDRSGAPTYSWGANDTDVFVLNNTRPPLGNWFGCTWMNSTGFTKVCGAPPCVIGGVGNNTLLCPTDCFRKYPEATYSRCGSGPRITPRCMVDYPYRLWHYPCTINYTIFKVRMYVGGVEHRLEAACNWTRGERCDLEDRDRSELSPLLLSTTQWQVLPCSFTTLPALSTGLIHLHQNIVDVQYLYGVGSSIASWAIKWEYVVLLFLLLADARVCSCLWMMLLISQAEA

Tests used:
[1] = biological target: T1, baculovirus-derived recombinant GST-fusion HCV E2 protein (GST-E2) (Hepatitis C virus genotype 1a, UniProt P27958); assay: Coprecipitation with GST-E2 using Glutathione beads, Western blot with anti-IFN-α antibody; format: binding; conditions: culture supernatant of COS-1 cells, 4° C.; FIG. 20
T1 construct: purchased Immuno Diagnostics; host or cells: baculovirus expression system
Procedure: There was evaluated the binding of IFN-α2b or HCV-binding type IFNs which had been transiently expressed in COS-1 cells to the baculovirus-derived recombinant GST-fusion HCV E2 protein (hereinafter referred to as GST-E2; manufactured by Immuno Diagnostics) by coprecipitation using Glutathione beads. Five microliters of GST-E2 (1 μg/μl) was mixed with 400 μl of the culture supernatant of COS-1 cells containing transiently expressed IFN-α2b or HCV-binding type IFNs, and were incubated at 4° C. for 1 hour. Glutathione Sepharose 4B (Amersham Pharmacia) which had been incubated in buffer TBS-X [composition: 50 mM Tris-HCl (pH 7.5), 150 mM NaCl, 0.1% Triton X-100] containing 3% BSA for 30 minutes was added to a mixture of the culture supernatant of COS-1 cells and GST-E2, and the aliquots were incubated overnight at 4° C. After centrifugation, the supernatants (non-binding fraction) were collected, and the precipitated Glutathione beads were washed five times with the above-mentioned TBS-X. A 2× sample buffer was added to a bound fraction Glutathione beads, and the aliquots were treated at 100° C. for 5 minutes. Thereafter, the supernatants obtained by centrifugation were subjected to Western blot analysis using an anti-IFN-α antibody. Similarly, the supernatants of the non-binding fraction were subjected to Western blot analysis. […]

Sindbis virus = assay: Anti-virus activity, Sindbis virus-FL cells, Crystal Violet method; format: cell-based; conditions: culture supernatant of COS-1 cells three days after transfection; FIG. 18 and 19
Procedure: The anti-virus activities of IFN-α2b and HCV-binding type IFNs which had been prepared from transiently expressed in COS-1 cells were assayed by an assay system using the system for evaluating Sindbis virus-FL cells. Each of 200 IU/mL human interferon α2b (INTRON A, manufactured by Sherring-Plough/YAMANOUCHI PHARMACEUTICAL CO., LTD.) or the culture supernatants of COS-1 cells resulting from transient expression of IFN-α2b and HCV-binding type IFNs was two-fold serial dilution with a medium containing fetal bovine serum where 1000-fold dilution was regarded as a dilution fold 1. The resulting dilution was cultured together with the FL cells.
On the next day, Sindbis virus was added to the resulting culture, and the mixture was cultured for 2 days. Thereafter, the absorbance of the resulting culture at 595 nm was determined by Crystal Violet method. The determination was taken at n=2. In addition, at the same time, the FL cells alone were cultured as cell control, and the untreated FL cells added with Sindbis virus were cultured as virus control.

Substance: IFN-α2b: human interferon-α2b transiently expressed in COS-1 cells from vector pCIA
- binding to GST-E2 (coprecipitation) [1]: does not bind to GST-E2
- anti-virus activity (Sindbis virus): have the anti-virus activity
